In general, IC50 refers to the concentration at which inhibition is half-maximal.

These results are taken from ChEMBL document CHEMBL1135091, “Thrombin active site inhibitors: chemical synthesis, in vitro and in vivo pharmacological profile of a novel and selective agent BMS-189090 and analogues” (Bioorg Med Chem Lett, 2002).

Assay [1] concerns the target T1, Prothrombin (Homo sapiens, UniProt P00734).
The target in assay [2] is T1, Prothrombin. Put plainly: In vitro inhibition of thrombin catalytic activity using s-2238 substrate at 10 uM was measured at […] after 3 min incubation with compound. Format: functional.

On Prothrombin [1], `C[C@@H]1CCN(C(=O)CNS(=O)(=O)c2ccc3ccccc3c2)[C@@H](C(=O)NCCCCN=C(N)N)C1` came in with an IC50 of 27 µM. Still for that read-out and setting: the value for `N=C(N)NCCCCCCC(=O)NC[C@@H]1CCCN1C(=O)[C@H](CO)NS(=O)(=O)c1ccc2ccccc2c1` was 14 µM. With `CC1CNc2c(cccc2S(=O)(=O)N[C@@H](CCCNC(=N)N)C(=O)N2CC[C@@H](C)CC2C(=O)O)C1` (single isomer, unassigned) [ARGATROBAN], at Prothrombin [2], the 50% inhibitory concentration (IC50) was 0.038 µM.
